The target in this assay is Cruzipain (Trypanosoma cruzi, UniProt P25779). Briefly: Inhibition of Trypanosoma cruzi cruzaine pre-incubated for 10 mins.

Protein sequences, listed by entry. Tags and fused reporters are not part of them. Lines headed by an entry give the natural chain unless they say otherwise; changes in a name come on top.
UniProt P25779: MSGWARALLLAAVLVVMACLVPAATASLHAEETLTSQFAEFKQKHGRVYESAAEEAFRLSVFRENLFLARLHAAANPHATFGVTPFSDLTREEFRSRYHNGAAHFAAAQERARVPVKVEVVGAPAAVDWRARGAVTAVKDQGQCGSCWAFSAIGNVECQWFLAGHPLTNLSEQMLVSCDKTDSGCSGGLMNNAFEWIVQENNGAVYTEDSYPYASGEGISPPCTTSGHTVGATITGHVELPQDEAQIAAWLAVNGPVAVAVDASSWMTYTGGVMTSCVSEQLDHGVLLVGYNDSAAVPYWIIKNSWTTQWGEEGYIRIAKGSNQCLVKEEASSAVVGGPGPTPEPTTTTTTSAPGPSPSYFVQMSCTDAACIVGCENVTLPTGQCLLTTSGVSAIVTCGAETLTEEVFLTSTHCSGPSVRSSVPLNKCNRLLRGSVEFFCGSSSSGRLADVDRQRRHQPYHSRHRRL

The text below walks through data of ChEMBL document CHEMBL1275380, “Studies toward the structural optimization of novel thiazolylhydrazone-based potent antitrypanosomal agents” (Bioorg Med Chem, 2010).

What is called IC50 is the concentration needed to halve the response being measured. Read a high IC50 as weaker potency in that assay.

On to `CC/C(=N\NC(N)=S)c1cccc(Br)c1`, for which it took 40 nM to reach half-maximal inhibition (IC50).
